Results: US10746637B2, “Aldehyde scavenging agent for retrieving elements from fixed tissue” (University of Houston System, priority 2013, dated 2020)

Key:
GFAP = experiment: Microscope images of GFAP immunostaining after antigen retrieval (FIGS. 15-18); conditions: figure legends
collagen IV = experiment: Microscope images of Collagen IV immunostaining after antigen retrieval (FIGS. 13-23); conditions: figure legends

Compound: NNc1ccc([N+](=O)[O-])cc1[N+](=O)[O-]
- immunostaining of GFAP after antigen retrieval (GFAP): enhanced immunostaining
- immunostaining of Collagen IV after antigen retrieval (collagen IV): enhanced immunostaining
